{"source": "ChEMBL document CHEMBL1154371", "about": "“Cytotoxic xanthone constituents of the stem bark of Garcinia mangostana (mangosteen)” (J Nat Prod, 2009)", "target": "T1, Nuclear factor NF-kappa-B p105 subunit (Homo sapiens, UniProt P19838)", "T1 sequence (P19838 whole entry)": "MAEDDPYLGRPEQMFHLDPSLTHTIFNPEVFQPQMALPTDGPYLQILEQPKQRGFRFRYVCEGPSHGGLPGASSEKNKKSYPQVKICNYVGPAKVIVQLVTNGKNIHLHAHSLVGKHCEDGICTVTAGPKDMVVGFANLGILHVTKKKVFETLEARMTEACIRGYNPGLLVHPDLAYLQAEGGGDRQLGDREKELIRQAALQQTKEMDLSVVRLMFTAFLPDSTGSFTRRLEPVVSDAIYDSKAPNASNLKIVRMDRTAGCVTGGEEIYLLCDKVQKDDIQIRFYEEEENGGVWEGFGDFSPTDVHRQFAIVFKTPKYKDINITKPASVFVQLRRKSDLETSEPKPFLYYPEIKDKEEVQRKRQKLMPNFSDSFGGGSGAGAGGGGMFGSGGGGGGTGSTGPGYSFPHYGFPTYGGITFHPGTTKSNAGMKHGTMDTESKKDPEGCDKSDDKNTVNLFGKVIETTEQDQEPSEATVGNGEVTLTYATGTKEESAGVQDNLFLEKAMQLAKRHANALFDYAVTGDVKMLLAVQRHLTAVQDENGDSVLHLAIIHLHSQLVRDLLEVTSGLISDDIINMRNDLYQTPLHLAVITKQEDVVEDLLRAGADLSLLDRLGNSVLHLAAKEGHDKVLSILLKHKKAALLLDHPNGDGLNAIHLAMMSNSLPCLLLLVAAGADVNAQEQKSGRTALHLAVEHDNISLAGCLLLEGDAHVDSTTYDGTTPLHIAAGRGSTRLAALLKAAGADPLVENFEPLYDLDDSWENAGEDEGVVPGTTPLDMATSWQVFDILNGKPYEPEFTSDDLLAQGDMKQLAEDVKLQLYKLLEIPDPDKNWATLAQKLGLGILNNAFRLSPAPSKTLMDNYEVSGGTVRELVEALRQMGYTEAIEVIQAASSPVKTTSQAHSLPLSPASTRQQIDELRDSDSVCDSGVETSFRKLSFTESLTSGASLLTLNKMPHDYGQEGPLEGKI", "assay": "Inhibition of p50 after 1 hr by ELISA"}
{"smiles": "COc1ccc([C@@]23Oc4cc(OC)cc(OC)c4[C@]2(O)[C@H](O)[C@H](C(=O)N(C)C)[C@H]3c2ccccc2)cc1", "note": "[ROCAGLAMIDE]", "values": [{"measurement": "IC50", "value": 2000, "unit": "nM"}]}
